Screening results deposited in PubChem by ICCB-Longwood Screening Facility, Harvard Medical School.
GIV-Gai inh = blocks GIV peptide binding to rat Galpha-i3. P08753. Galpha-i3/FITC-GIV peptide fluorescence polarization, 90 min; hits give low values; scaled: aluminum fluoride 0%, vehicle 100%. percent of control (FP), % (concentration not given with the values). actives 0.42% (n = 210,000). AID 1224905;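 active = replicate mean at 85% of control or lower, very high polarization wells dropped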;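 also: wells of about 15 µL received 100 nL stock; the first replicate is given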
HCMV NEC inh = disrupts HCMV UL50-UL53 complex binding. hit rate 0.15% among 190,000. AID 1918969. inhibition, % (no concentration beside the values). HTRF UL50-UL53 interaction, normalized percent inhibition; in the data active means inhibition above about 27%, passing the limit was not always enough
GIV-Gai FP conf = confirmation of inhibitors of GIV binding to rat Galpha-i3. shares compounds with GIV-Gai inh. hit rate 38% among 580. FITC-GIV peptide binding to Galphai3, fluorescence polarization; hits give low values. fluorescence polarization, mP at 100 µM;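 active means inhibition score of 15 or more, meaning 100 minus mean polarization as percent of control over three replicates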;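 further: lower mP means peptide displaced from Galphai3 so more inhibition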
GIV-Gai AS conf = GIV-Galpha-i3 inhibition, AlphaScreen confirmation; shares compounds with GIV-Gai inh; AlphaScreen Galphai3-GIV binding, purified proteins, 90 min; hits give low values; AlphaScreen counts at 100 µM; hit rate 39% among 580; AID 1259351;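 active means inhibition score at or above a set limit, where the score is 100 minus the three-replicate mean percent of control signal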
Numbers without * were called inactive; / = no result. Hits are enriched below; roughly 0.43% of the tested compounds scored in any of these assays.

Letters – A = GIV-Gai inh; B = HCMV NEC inh; C = GIV-Gai FP conf; D = GIV-Gai AS conf
1. COc1ccc(/C=C2\C=C(c3ccccc3)N(c3cccc(C(C)=O)c3)C2=O)cc1Br
  A = 78*	B = /	C = 73	D = 38656
2. COc1ccc(/C=C2\C=C(c3ccccc3)N(c3ccc(Br)cc3)C2=O)cc1Br
  A = 110	B = /	C = /	D = /
3. COc1ccc(/C=C2\C=C(c3ccccc3)N(c3ccc(O)cc3)C2=O)cc1Br
  A = 111	B = /	C = /	D = /
4. COC(=O)c1cc(N2C(=O)/C(=C/c3ccc(OC)c(Br)c3)C=C2c2ccccc2)ccc1Cl
  A = 7.0*	B = /	C = 62	D = 49090
5. COc1ccc(/C=C2\C=C(c3ccccc3)N(c3cccnc3)C2=O)cc1Br
  A = 44*	B = /	C = 66	D = 45797
6. COc1ccc(/C=C2\C=C(c3ccccc3)N(c3ccc(Cl)c(Cl)c3)C2=O)cc1Br
  A = 119	B = /	C = /	D = /
7. COc1ccc(/C=C2\C=C(c3ccccc3)N(c3ccc(Br)cc3)C2=O)cc1
  A = 102	B = /	C = /	D = /
8. Cc1nc(N2CCOCC2)c2c(C)c(C(=O)Nc3cccc(Cl)c3)sc2n1
  A = 105	B = /	C = /	D = /
9. CCOc1ccc(C(N)CC(=O)OC)cc1 (configuration not stated)
  A = 102	B = /	C = /	D = /
10. COC(=O)C1=CN(CC2CCCO2)C=C(C(=O)OC)C1c1ccc(OC)c(OCc2ccccc2)c1 (configuration not stated)
  A = 102	B = -11	C = /	D = /
11. CNC(=O)c1ccc(N2CCCC2=O)cc1
  A = /	B = -20	C = /	D = /
12. Cn1cnc(S(=O)(=O)N2CCC(C(=O)Nc3ccc(F)c(Cl)c3)CC2)c1
  A = 104	B = -16	C = /	D = /
13. CCc1ccc(NC(=O)C2=CC(c3ccc4c(c3)OCO4)=NS(=O)(=O)N2C)cc1
  A = 106	B = -12	C = /	D = /
14. CN1C(C(=O)Nc2ccc(OC(F)(F)F)cc2)=CC(c2ccc3c(c2)OCO3)=NS1(=O)=O
  A = 55*	B = -28	C = 82	D = 33536
15. Cc1nc(N2CCCC2)nc2oc(-c3ccccc3)nc12
  A = 115	B = -31	C = /	D = /

Not a retest: an excerpt of the list.
Letters – A = GIV-Gai inh; B = HCMV NEC inh; C = GIV-Gai FP conf; D = GIV-Gai AS conf
14. CN1C(C(=O)Nc2ccc(OC(F)(F)F)cc2)=CC(c2ccc3c(c2)OCO3)=NS1(=O)=O
  A = 55*	B = -28	C = 82	D = 33536
15. Cc1nc(N2CCCC2)nc2oc(-c3ccccc3)nc12
  A = 115	B = -31	C = /	D = /

(continued)
Letters – A = GIV-Gai inh; B = HCMV NEC inh; C = GIV-Gai FP conf; D = GIV-Gai AS conf
16. Cc1nc(N2CCN(c3ccccn3)CC2)nc2oc(-c3ccccc3)nc12
  A = 93	B = -16	C = 98	D = 26416
17. CC(=O)N1c2cc(S(=O)(=O)N3CCN(c4ccccn4)CC3)c(Br)cc2CC1C (configuration not stated)
  A = 102	B = -12	C = /	D = /
18. COc1ccc(CNc2nc(SCC(=O)N3CCC(C)CC3)nc3ccccc23)cc1
  A = 108	B = /	C = /	D = /
19. Cn1c(=O)n(C)c2cc(SC3CCCCC3)c(NC(=O)c3ccccc3Br)cc21
  A = 109	B = -10	C = /	D = /
20. S=c1nc(C2COc3ccccc3O2)[nH][nH]1 (configuration not stated)
  A = /	B = -2	C = /	D = /
21. S=c1[nH]nc(C2COc3ccccc3O2)o1 (configuration not stated)
  A = 83*	B = -1	C = 68	D = 3039*
22. Cc1ccc(OCc2nnc(SCC(=O)Nc3nccs3)n2C(C)C)c(C)c1
  A = 102	B = /	C = /	D = /
23. CC(c1ccccc1)n1cnc2c([nH]c3ccc(F)cc32)c1=O (configuration not stated)
  A = 105	B = -19	C = /	D = /
24. Cc1cc(-c2cc(S(=O)(=O)NCc3ccc(Cl)cc3)c(C)s2)on1
  A = 105	B = -23	C = /	D = /
25. CCOc1cc(C(c2c(C)[nH]n(-c3ccccc3)c2=O)c2c(C)[nH]n(-c3ccccc3)c2=O)ccc1OCc1ccccc1
  A = 82*	B = /	C = 58*	D = 37780
26. Cc1[nH]n(-c2ccccc2)c(=O)c1C(c1ccccc1OCc1ccccc1)c1c(C)[nH]n(-c2ccccc2)c1=O
  A = 107	B = /	C = /	D = /
27. CCOc1cc(C(c2c(C)[nH]n(-c3ccccc3)c2=O)c2c(C)[nH]n(-c3ccccc3)c2=O)ccc1OC
  A = 70*	B = /	C = 61	D = 9976*
28. CCOc1ccc(C(c2c(C)[nH]n(-c3ccccc3)c2=O)c2c(C)[nH]n(-c3ccccc3)c2=O)cc1OC
  A = 96	B = 29	C = /	D = /
29. O=C1C(=Cc2ccc(-c3ccc(F)cc3F)o2)C(=O)c2ccccc21
  A = 110	B = 12	C = /	D = /
30. COc1cccc(C2=N/C(=C\c3ccccc3OC)C(=O)N2c2ccc(C)cc2Br)c1
  A = 114	B = /	C = /	D = /
31. COc1cccc(C2=N/C(=C\c3ccccc3OC)C(=O)N2c2ccc(C)cc2C)c1
  A = 73*	B = /	C = 68	D = 40847
32. CCCS(=O)(=O)c1c(S(=O)(=O)CCC)c2cc(-c3ccncc3)ccn2c1C(=O)N/N=C/c1ccc(OC)cc1
  A = 101	B = /	C = /	D = /
33. COc1ccc(CCNC(=O)CSC2=NS(=O)(=O)c3ccccc32)cc1OC
  A = 97	B = -16	C = /	D = /
34. O=C(CSC1=NS(=O)(=O)c2ccccc21)Nc1ccccc1
  A = 66*	B = -17	C = 59	D = 10980*
35. Cc1ccc(OCc2nc(-c3ccc(C(=O)NCCCN4CCN(Cc5ccccc5)CC4)cc3)oc2C)cc1
  A = 96	B = -11	C = /	D = /
36. CCOc1cc(/C=C2\SC(=S)NC2=O)cc(Cl)c1OC(=O)c1ccc(OC)cc1
  A = 115	B = /	C = /	D = /
37. CCOc1cc(C=C2C(=O)NC(=O)NC2=O)cc(Cl)c1OC(=O)c1ccc(OC)cc1
  A = 75*	B = 49*	C = 64	D = 50946

Entries by screen from the entries so far.
Compounds 34 to 37 in HCMV NEC inh read -17, -11, /, 49*
